From ChEMBL document CHEMBL4673248, “Discovery and Characterization of BAY 1214784, an Orally Available Spiroindoline Derivative Acting as a Potent and Selective Antagonist of the Human Gonadotropin-Releasing Hormone Receptor as Proven in a First-In-Human Study in Postmenopausal Women” (J Med Chem, 2020)

Assays:
Format in all cases: cell-based
Settings in all cases: filed as antagonist
[1] = biological target: T1, Gonadotropin-releasing hormone receptor (Homo sapiens) (UniProt P30968); assay: Inhibition of Tag-lite green-labeled agonist binding to terbium fluorophore-labeled human N-terminal SNAP-tag GnRh receptor expressed in HEK293 cells assessed as association rate constant by TR-FRET assay
T1 sequence (whole entry): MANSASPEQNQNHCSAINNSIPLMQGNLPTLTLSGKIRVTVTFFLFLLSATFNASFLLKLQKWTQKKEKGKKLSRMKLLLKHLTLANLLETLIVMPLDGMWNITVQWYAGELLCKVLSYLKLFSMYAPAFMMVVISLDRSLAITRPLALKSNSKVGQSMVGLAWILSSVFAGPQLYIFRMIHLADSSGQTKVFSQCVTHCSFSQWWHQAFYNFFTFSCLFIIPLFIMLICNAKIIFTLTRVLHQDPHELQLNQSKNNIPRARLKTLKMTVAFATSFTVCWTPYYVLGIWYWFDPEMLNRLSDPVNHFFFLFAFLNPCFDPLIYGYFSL
How it was run: (§1)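 Kinetic competition at rt: tracer at 10 nM final with compound, Tb-hGnRH-R cells injected in the reader. TR-FRET read at time zero and every 21 s. Baseline-subtracted traces fitted with the Motulsky–Mahan competitive kinetics model. At least two independent experiments, two replicates each.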

[2] = biological target: T1, Gonadotropin-releasing hormone receptor (Homo sapiens); assay: Inhibition of Tag-lite green-labeled agonist binding to terbium fluorophore-labeled human N-terminal SNAP-tag GnRh receptor expressed in HEK293 cells assessed as residence time by TR-FRET assay; how it was run: as §1
[3] = biological target: T1, Gonadotropin-releasing hormone receptor (Homo sapiens); assay: Inhibition of Tag-lite green-labeled agonist binding to terbium fluorophore-labeled human N-terminal SNAP-tag GnRh receptor expressed in HEK293 cells assessed as dissociation rate constant by TR-FRET assay; how it was run: as §1

O=C(NCc1ncc(C(F)(F)F)cc1Cl)c1ccc2c(c1)C1(CCS(=O)(=O)CC1)[C@H](C1CC1)N2S(=O)(=O)c1ccc(F)cc1 [BAY-784]
K [1]: 4.2 10^4/M/s | TIME [2]: 0.117 h | K [3]: 4.13 10^-3/s
